The values that follow come from PMC5907308, “21st Brazilian Diabetes Society Congress” (Diabetology & Metabolic Syndrome, 2018).

This assay concerns Gram-positive. Kind of assay: Antibiogram of tissue fragment cultures of infected diabetic foot ulcers, Gram-positive. The following applies: 51 cultures of tissue fragment, WHONET 5.6, Graphic 2.

Turning to `CCC[C@@H]1C[C@@H](C(=O)N[C@@H]([C@H]2O[C@H](SC)[C@H](O)[C@@H](O)[C@H]2O)[C@H](C)Cl)N(C)C1` [Clindamycin], the “%R (resistance), Gram-positive” value came to 70%.
